Data from US4812442A, “Tripeptide renin inhibitors” (priority 1987, dated 1989).

The chains behind the UniProt entries cited, without tags or fusion partners. Residues count along the entry.
UniProt P00797, 67-406, species assumed: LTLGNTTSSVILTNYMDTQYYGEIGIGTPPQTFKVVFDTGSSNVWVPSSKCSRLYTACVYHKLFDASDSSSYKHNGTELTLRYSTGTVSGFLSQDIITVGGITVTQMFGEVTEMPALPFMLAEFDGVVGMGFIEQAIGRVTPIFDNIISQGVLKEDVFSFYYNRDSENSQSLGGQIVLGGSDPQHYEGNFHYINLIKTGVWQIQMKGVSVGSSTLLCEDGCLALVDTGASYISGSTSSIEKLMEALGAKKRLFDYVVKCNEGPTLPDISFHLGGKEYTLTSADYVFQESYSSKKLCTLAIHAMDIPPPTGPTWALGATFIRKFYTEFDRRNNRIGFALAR

Target: renin (Homo sapiens, UniProt P00797)
Experiment: Renin inhibition IC50 (methods of J. Med. Chem., 1985, 28, 1789-1790)
Type: biochemical
Source text: The following examples are intended to be representative and not limiting. IC50 results were obtained according to the methods described in J. Med. Chem., 1985, 28, 1789-1790.

Boc-Phe-His-ACHPA-1-piperidine [Example 8]
IC50: 11 nM
